Data published in patent US20210220347A1 (priority 2015, published 2021).

Assay: Plasma concentrations of buprenorphine and norbuprenorphine (LC/MS/MS)
Conditions: buccal film; Safety Population

Structure (SMILES): CO[C@]12CC[C@@]3(C[C@@H]1[C@](C)(O)C(C)(C)C)[C@H]1Cc4ccc(O)c5c4[C@@]3(CCN1)[C@H]2O5
- Plasma concentrations following the 450-μg dose compared with the 300-μg dose: higher
